Reference: patent publication US4652562A, “Quinoline derivatives and pharmaceutical compositions” (Egis Gyogyszergyar, priority 1985, dated 1987)

System: CFLP mice
Test: Toxicity in test animals (CFLP mice), LD50 per os
Assay type: in vivo
Details: in words

NC(=Nc1c([N+](=O)[O-])cnc2ccccc12)N1CCOCC1 [Example 1, N-(3-Nitro-4-quinolyl)-morpholino carboxamidine] was tested, and the “toxicity in test animals” value was “advantageous toxicity in test animals”.
